According to patent US20260306421A1, “SYSTEMS AND METHODS FOR TRANSDERMAN PATCH DELIVERY” (VITAMAX PATCH WHOLESALER LLC, priority 2022, published 2026):

Key:
[1] = Solubility of iron chloride hexahydrate and iron complexes (visual / assayed); type: physicochemical
Method: Due to the high number of test samples (6 complexes plus the starting material, iron chloride hexahydrate) a visual solubility screen was used to screen the solubility in a range of solvents. […] Quantitative determination was performed by either incubating the complex in excess in the solvent using a shaking 37° C. water bath for 48 h or sonicating it for 2 hours at 40° C. or leaving overnight on a 50° C. hot plate. Once incubation period was completed, the exact solubility in a particular solvent was assayed (using the iron assay) after centrifugation (i.e. assay iron content in the supernatant using the Ferrozine® assay).

[2] = Visual skin damage / necrosis after iron permeation study; conditions: after 24 h permeation study, porcine skin
Excerpt: On the day of the experiment, the skin was defrosted. For the full thickness studies, the subcutaneous fat removed (2.5 mm thick) and for the dermatomes skin studies the tissued was dermatomed to a 1 mm thickness. The tissue was cut into the appropriate size sections (2.19±0.21 cm^2) and mounted between donor and receiver compartments of Franz diffusion cells with the SC facing the donor compartment. Each cell was sealed using parafilm and 12 mm magnetic stir bars were placed into the receiver compartment. The receiver compartment was filled with the desired receiver solution and the Franz cells were placed in a stirring water bath at 37° C. Cells were allowed to equilibrate for 30 min after which the receiver fluid using was mixed using a syringe and the “zero hour” sample was withdrawn from the arm and compensate with the same volume of fresh pre-warmed solution. Following zero-hour sampling, the donor solution was placed in the donor compartment and covered with parafilm. Samples were withdrawn and compensated with fresh receiver solution at set time intervals for a 24 h duration. The iron in each sample was quantified using the method specified in Section 2.2.2.1. […]

visual solubility of complex ([1]; made at pH 4 and 7, PG, PEG4000 and Transcutul)	Solubility of complex (visual) ([1]; Glycerol)	Solubility of complex ([1]; Liquid Paraffin)	Solubility, equivalent elemental iron ([1]; Liquid Paraffin)	Solubility of complex ([1]; Miglyol 810N)	Solubility, equivalent elemental iron ([1]; Miglyol 810N)	Solubility of complex (visual) ([1]; PEG400)	Solubility of complex (visual) ([1]; PG)	Solubility of complex (visual) ([1]; Transcutul)	Solubility of complex (visual) ([1]; Triaceten)	Substance	skin damage / necrosis [2]
< 20 mg/mL										iron hexanoate	
	<8 mg/mL Iron oleate*	680 mg/mL Iron oleate	Equivalent to 41 mg/mL elemental iron	200 mg/mL Iron oleate	Equivalent to 12.5 mg/mL elemental iron	<8 mg/mL Iron oleate*	<8 mg/mL Iron oleate*	<8 mg/mL Iron oleate*	<8 mg/mL Iron oleate*	iron oleate	no observed skin damage
